# Experimental data published in PubChem BioAssay AID1865 (National Center for Advancing Translational Sciences (NCATS), 2009).
# In all, about 280,000 compounds went through this assay and about 540 (0.19%) were called active. All entries are inconclusive by the source's own rule. Clear calls are listed elsewhere. Calls come from the whole dose curve; as a rule, active = well fitted activation curve with a large enough effect; inconclusive = small, poorly fitted or top-dose-only effect; inactive = flat fitted curve, though single readings scatter.
# Experiment: Quantitative High-Throughput Screen for Regulators of Epigenetic Control; note: nearly all actives have a fitted effect of over 60% in size
# Details: murine LDR cells, GFP reporter derepression, 30 h
# From the text: NIH Molecular Libraries Screening Centers Network [MLPCN] NIH Chemical Genomics Center [NCGC] MLSCN Grant: 1 X01 MH079860-01 Assay Provider: Elisabeth D. Martinez, University of Texas SW Medical Center NCGC Assay Overview: The Locus Derepression (LDR) assay detects the derepression or induction of a GFP reporter that is stably integrated in a genomic region of murine cells that is presumably silenced. Transcription of the GFP reporter is controlled by a CMV promoter, which normally is constitutively active. However, this cell line, termed LDR, was selected for lack of constitutive production of GFP. GFP production can be induced by incubating the cells with histone deacetylase or DNA methyltransferase inhibitors (Martinez et al., 2006). Compounds that derepress or induce this reporter locus are identified by enumerating GFP positive cells using a laser-scanning microplate cytometer (Auld et al., 2006). […]
# NCGC Assay Protocol Summary: Three hundred LDR cells in 5 uL per well were dispensed into black, clear-bottom 1536-well plates. […] Fluorescent protein-based cellular assays analyzed by laser-scanning microplate cytometry in 1536-well plate format. […] A quantitative high-throughput screen identifies potential epigenetic modulators of gene expression. […] High-content fluorescence-based screening for epigenetic modulators. […]
# Potency is the fitted concentration of half-maximal effect.
row,Compound,Potency
1,CS(=O)(=O)c1cc([N+](=O)[O-])c2no[n+]([O-])c2c1,inconclusive: 22.4 µM
